Measured values taken from paper PMC2134812 (The Journal of Cell Biology, 1997).

System: B5 and SH-SY5Y cells
Experiment: Competition of 125I-LIP2 binding
Design: species or system human
Settings: 2 μM competitor, preincubated 1 h at 4°C, 10 nM 125I-LIP2

leucine enkephalin
Inhibition of 125I-LIP2 binding (in words): No significant inhibitory effect
